{"source": "paper PMC6556434", "about": "(Nature genetics, 2018)", "origin": "cited, not measured here", "test_system": "PHD finger of EBS", "conditions": "cited from earlier work"}
{"substance": "H3K4me2: histone H3(1–15) peptide with K4me2, used in ITC and in crystal structure with EBSΔC", "values": [{"measurement": "binding to the PHD finger of EBS in vitro (in words)", "result": "bind"}]}
